{"source": "patent EP0637247B1", "about": "“TREATMENT OF HERPESVIRUS INFECTION” (priority 1992, dated 1993)", "details": "mice, 14C-labelled compound", "protocol": "Counts were measured and used to calculate the amount and concentration of drug in each organ.", "data": [{"substance": "N-α-[^14C-acetyl]-nona-D-arginine amide acetate", "values": [{"measurement": "distribution of drug to tissues", "setting": "i.v. (tail vein) and s.c. (abdomen) injection, scintillation counting of organs", "value": "rapid distribution of drug to tissues"}, {"measurement": "organs with highest and most prolonged levels", "setting": "i.v. and s.c. injection", "value": "liver, followed by the kidneys and spleen"}]}]}
